Data reported in US12070504B1, “Compounds and methods for altering cyto-states of cells that express c-type lectin receptors” (Physis International LLC, priority 2020, dated 2024).
pKd: −log10 of the molar value. Where “and” joins values, the source holds several entries; their conditions need not be identical. Identical values can stand only once.

Amino acid sequences for entries named in this document (tags omitted). Residues count along the entry.
UniProt P22897, 19-1456: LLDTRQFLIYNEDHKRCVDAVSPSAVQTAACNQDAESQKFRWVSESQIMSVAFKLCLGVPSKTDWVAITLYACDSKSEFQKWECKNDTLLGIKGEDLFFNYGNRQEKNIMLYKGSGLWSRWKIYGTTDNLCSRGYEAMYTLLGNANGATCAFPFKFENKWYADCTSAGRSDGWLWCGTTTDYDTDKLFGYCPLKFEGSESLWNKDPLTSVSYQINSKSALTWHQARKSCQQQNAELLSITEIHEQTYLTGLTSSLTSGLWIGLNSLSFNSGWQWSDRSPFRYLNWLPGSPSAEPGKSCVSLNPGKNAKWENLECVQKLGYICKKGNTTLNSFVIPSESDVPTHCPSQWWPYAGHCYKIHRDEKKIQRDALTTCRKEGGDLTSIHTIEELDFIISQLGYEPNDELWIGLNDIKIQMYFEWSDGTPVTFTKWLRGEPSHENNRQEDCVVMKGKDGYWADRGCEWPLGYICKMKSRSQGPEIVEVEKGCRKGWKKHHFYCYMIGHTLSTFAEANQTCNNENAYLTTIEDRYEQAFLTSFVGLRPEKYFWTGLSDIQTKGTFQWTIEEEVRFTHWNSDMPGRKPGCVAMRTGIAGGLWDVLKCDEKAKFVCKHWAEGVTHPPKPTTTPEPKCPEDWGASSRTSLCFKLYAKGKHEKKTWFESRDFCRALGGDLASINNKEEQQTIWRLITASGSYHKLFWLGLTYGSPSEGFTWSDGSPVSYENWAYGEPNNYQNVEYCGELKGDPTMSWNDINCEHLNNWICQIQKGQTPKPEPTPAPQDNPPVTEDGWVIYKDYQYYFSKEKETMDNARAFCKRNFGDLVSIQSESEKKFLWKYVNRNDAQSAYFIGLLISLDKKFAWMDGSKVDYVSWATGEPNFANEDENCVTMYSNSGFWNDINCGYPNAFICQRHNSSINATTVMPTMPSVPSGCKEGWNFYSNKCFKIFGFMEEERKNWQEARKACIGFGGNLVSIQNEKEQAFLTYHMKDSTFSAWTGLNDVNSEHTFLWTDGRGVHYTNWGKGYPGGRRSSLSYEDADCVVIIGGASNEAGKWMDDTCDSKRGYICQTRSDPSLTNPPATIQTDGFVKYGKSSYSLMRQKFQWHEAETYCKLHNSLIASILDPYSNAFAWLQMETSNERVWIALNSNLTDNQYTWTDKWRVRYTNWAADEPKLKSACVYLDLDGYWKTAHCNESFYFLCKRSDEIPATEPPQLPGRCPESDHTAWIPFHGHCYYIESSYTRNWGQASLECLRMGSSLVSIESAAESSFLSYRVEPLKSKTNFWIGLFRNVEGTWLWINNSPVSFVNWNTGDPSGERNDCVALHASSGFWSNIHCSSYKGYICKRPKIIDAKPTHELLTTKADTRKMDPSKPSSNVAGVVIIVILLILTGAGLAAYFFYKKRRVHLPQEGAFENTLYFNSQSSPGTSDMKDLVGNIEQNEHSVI

Target: CD206 (Homo sapiens, UniProt P22897)
Conditions: read-out: Kd for tilmanocept/CD206; mannose as carbohydrate recognition moiety

With “dextran 3-[(2-aminoethyl)thio]propyl 17-carboxy-10,13,16-tris(carboxymethyl)-8-oxo-4-thia-7,10,13,16-tetraazahepta-dec-1-yl 3-[[2-[[1-imino-2-(D-mannopyranosylthio)ethyl]amino]ethyl]thio] propyl ether complexes [tilmanocept]” the pKd was ~10.52 and 10.52.
